# Data published in patent publication US20230241071A1, “COMBINATION TREATMENT OF LIVER DISORDERS” (Terns Pharmaceuticals, Inc., priority 2021, published 2023).
# Columns and labels:
# [1] = Multiple-ascending dose trial of Compound 1 in healthy participants: safety and PK; type: in vivo, human; conditions: mean (CV %)
# Experimental: A multiple-ascending dose clinical trial of Compound 1 was performed. 3 groups of 8 healthy participants were randomized to receive multiple once daily (QD) doses of Compound 1 or matching placebo in a 3:1 ratio for 7 days (1 mg and 4 mg) or 14 days (10 mg). Plasma levels of Compound 1 and PD biomarkers (plasma amine oxidase activity and methylamine levels) were determined at pre-dose and various timepoints post-dose.
# [2] = system: rat CDHFD+NaNO2 NASH model; assay: Rat CDHFD+NaNO2 NASH model, liver RNAseq; type: in vivo; conditions: 8 wk, Compound 1 25 mg/kg, Compound 3 3 mg/kg
# Experimental: Animal handling: After arrival, the rats were left for a 2-week acclimation period, during which they were accustomed to the animal facility staff and trained on the procedure of oral gavage. After 2 weeks the animals were put on CHDFD (choline deficient high fat diet) and pre-fed for 4 weeks. Then the rats were started on treatment with test compounds, and 3× per week i.p. NaNO2 injections, while they remained on CDHFD, for an additional 8 weeks. NaNO2 was administered at 25 mg/kg i.p. dissolved in PBS 3 times a week (on Mondays, Wednesdays, and Fridays) for 8 weeks while on CDHFD.
# Final Sacrifice: Half of the animals of each treatment group were terminated on day 84. The other half of the animals in each group were terminated on the following day, day 85. On the day of sacrifice the animals were fasted for 2 h and received a final treatment with the respective test substance. After the final compound treatment, the animals had no more access to food until sacrifice. At 4 h after the last administration all animals were sacrificed and livers were sampled for further analysis.
# Animal handling: After arrival, the rats were left for a 2-week acclimation period, during which they were accustomed to the animal facility staff and trained on the procedure of oral gavage. After 2 weeks the animals were placed on a choline deficient high fat diet (CDHFD) and pre-fed for 4 weeks to induce steatosis and a NASH-like disease phenotype. Rats were then treated with test compounds for an additional 8 weeks while on CDHFD. Concomitant with compound treatment, rats were administered sodium nitrite (NaNO2, 25 mg/kg dissolved in PBS) by triweekly intraperitoneal (IP) injection to induce liver fibrosis.
# Final Sacrifice: Half of the animals of each treatment group were terminated on day 84. The other half of the animals in each group were terminated on the following day, day 85. On the day of sacrifice the animals were fasted for 2 hours and received a final treatment with the respective test substance. After the final compound treatment, the animals had no more access to food until sacrifice. At 4 hours after the last administration all animals were sacrificed and livers were sampled for further analysis.
# Sampling and analysis: Small liver pieces were harvested into RNAlater (Thermo Fisher Scientific Dreieich Germany) and stored at −20° C. prior to RNA sequencing (RNAseq) at MedGenome Inc. RNAseq analysis was performed on liver tissue by Illumina sequencing using standard methodologies. Briefly, RNAseq libraries (n=5 per group) were generated using Illumina Truseq stranded mRNA kits and sequencing was performed on a NovaSeq 6000 sequencer. Alignment was performed using STAR (v2.7.3a) aligner and reads mapping to ribosomal and mitochondrial genome were removed prior to alignment. Raw read counts were estimated using HTSeq (v0.11.1) and normalized using DESeq2 (v2.22.2). Differentially expressed genes (DEGs) were determined using DESeq2 (R Bioconductor package).
# VAP-1 = target: T1, VAP-1 (Homo sapiens, UniProt Q16853); assay: Compound 1 10 mg QD for 12 weeks in adults with non-cirrhotic NASH phenotype; type: in vivo
# T1 construct: from tissue; host or cells: plasma of trial patients
# T1 sequence (Q16853 29-763 limits assumed): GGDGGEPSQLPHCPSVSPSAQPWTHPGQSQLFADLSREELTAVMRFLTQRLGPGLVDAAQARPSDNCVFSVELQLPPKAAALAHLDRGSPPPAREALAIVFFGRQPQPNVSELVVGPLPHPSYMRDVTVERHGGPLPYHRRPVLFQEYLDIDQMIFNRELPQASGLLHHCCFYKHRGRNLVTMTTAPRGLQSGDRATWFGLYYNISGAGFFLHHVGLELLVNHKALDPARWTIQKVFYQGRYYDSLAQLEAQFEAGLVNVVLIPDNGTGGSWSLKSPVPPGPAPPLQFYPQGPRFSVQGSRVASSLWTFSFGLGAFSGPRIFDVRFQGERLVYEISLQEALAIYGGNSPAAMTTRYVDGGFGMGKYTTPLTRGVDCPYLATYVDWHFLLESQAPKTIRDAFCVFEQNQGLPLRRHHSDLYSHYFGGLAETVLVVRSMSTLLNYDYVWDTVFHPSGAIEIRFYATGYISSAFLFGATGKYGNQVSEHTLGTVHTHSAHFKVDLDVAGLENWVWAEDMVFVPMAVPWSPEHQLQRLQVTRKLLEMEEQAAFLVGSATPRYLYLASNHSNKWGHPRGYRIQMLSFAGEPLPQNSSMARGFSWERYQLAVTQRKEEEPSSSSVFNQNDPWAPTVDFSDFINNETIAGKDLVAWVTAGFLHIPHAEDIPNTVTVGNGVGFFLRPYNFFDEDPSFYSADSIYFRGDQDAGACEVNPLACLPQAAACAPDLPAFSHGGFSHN
# Experimental: Part 1 of the two-part trial was a double-blind, placebo-controlled study in 30 adults with non-cirrhotic NASH phenotype evaluating 10 mg Compound 1 once daily (QD) for 12 weeks followed by off-treatment evaluation at week 16 (FIG. 28). Part 1 interim analysis primary endpoint was safety assessed by adverse events (AEs) and laboratory tests; percent change from baseline (BL) in plasma VAP-1 activity was a secondary endpoint. Exploratory imaging and blood-based biomarkers of liver inflammation and fibrosis were also assessed. Analyses of change (or percent change) from baseline used an ANCOVA model with change (or percent change) from baseline as the dependent variable including treatment group and randomization strata as fixed effects and baseline as a covariate.
structure (smiles),measurement,setting,value
"COC1CCN(c2ncc(OC/C(=C/F)CN)cn2)CC1 [Compound 1, (E)-3-fluoro-2-(((2-(4-methoxypiperidin-1-yl)pyrimidin-5-yl)oxy)methyl)prop-2-en-1-amine]","AR (Cmax), accumulation ratio between Day 1 and Last Day",[1]; 1 mg QD 7 days,5.98 (49)
same,"AR (AUC), accumulation ratio between Day 1 and Last Day",[1]; 4 mg QD 7 days,11.7 (22)
same,"AR (Cmax), accumulation ratio between Day 1 and Last Day",[1]; 4 mg QD 7 days,4.32 (34)
same,"AR (AUC), accumulation ratio between Day 1 and Last Day",[1]; 10 mg QD 14 days,8.2 (63)
same,"AR (Cmax), accumulation ratio between Day 1 and Last Day",[1]; 10 mg QD 14 days,3.35 (57)
same,Fabp2 differential gene expression relative to vehicle control,[2],−1.02* log2-fold change
same,Irs1 differential gene expression relative to vehicle control,[2],0.26 log2-fold change
same,Irs2 differential gene expression relative to vehicle control,[2],0.13 log2-fold change
same,Ldlr differential gene expression relative to vehicle control,[2],0.41* log2-fold change
same,Ldlrap1 differential gene expression relative to vehicle control,[2],0.38* log2-fold change
same,Lrp1 differential gene expression relative to vehicle control,[2],0.25 log2-fold change
same,Lrp2 differential gene expression relative to vehicle control,[2],0.08 log2-fold change
same,Ppara differential gene expression relative to vehicle control,[2],0.32 log2-fold change
same,Ppargcla differential gene expression relative to vehicle control,[2],0.51* log2-fold change
same,Rxra differential gene expression relative to vehicle control,[2],0.51 log2-fold change
same,Slc27a1 differential gene expression relative to vehicle control,[2],0.33 log2-fold change
same,Slc27a5 differential gene expression relative to vehicle control,[2],0.68* log2-fold change
same,Vegfa differential gene expression relative to vehicle control,[2],0.23 log2-fold change
same,Vegfc differential gene expression relative to vehicle control,[2],−0.45* log2-fold change
same,Vldlr differential gene expression relative to vehicle control,[2],−1.6* log2-fold change
same,"ICAM-1 decrease relative to BL, mean (±SE)","VAP-1; Week 8, p=0.0313 vs placebo",34.85 (56.03) μg/L
same,"TIMP-1 decrease relative to BL, mean (±SE)","VAP-1; Week 12, p<0.05 vs placebo",29.58 (9.26) ng/mL
same,VCAM-1 decrease relative to BL,"VAP-1; Week 12, p=0.0245 vs placebo",24.327 (20.5850) μg/L

# Marks after values point to notes of the source that are not given here.
